scFv variants of Ab-14 (heavy chain) against a SARS-CoV-2 spike peptide

Target peptide (SARS-CoV-2 spike, HR2 region): PDVDLGDISGINAS

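Phage display of a naive human antibody library on the peptide gave the parent. These sequences belong to a second round, designed from the earlier measurements on random variants of the parent. Their group label is 14H_GP_Gibbs (GP: Gaussian process model; Gibbs: Gibbs sampling; a sequence that several methods proposed may carry one label only). AlphaSeq pools MATa yeast showing the antibodies with MATalpha yeast showing the peptide. Pairs that bind mate more often; barcode pairs of the diploids are counted by sequencing. A regression on co-assayed BCL2-family reference pairs converts the normalised counts of each replicate to an apparent Kd. There are six technical replicates.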

Each scFv is VH, a 15-residue (Gly4Ser)3 linker, VL, as in the parent Ab-14, and differs from it in the CDRs of the heavy chain only.
VH: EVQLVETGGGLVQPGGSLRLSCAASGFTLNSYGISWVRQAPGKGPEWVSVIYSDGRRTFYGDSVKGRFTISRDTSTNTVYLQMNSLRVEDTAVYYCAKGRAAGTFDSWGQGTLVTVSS
VL: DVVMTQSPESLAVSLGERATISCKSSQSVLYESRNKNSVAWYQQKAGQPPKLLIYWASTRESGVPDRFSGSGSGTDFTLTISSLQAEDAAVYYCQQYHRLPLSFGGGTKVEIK

Variants are written as CDR1, CDR2 and CDR3 of the heavy chain (limits as in the source). Parent: GFTLNSYGIS, VIYSDGRRTFYGDSVK, GRAAGTFDS.
Affinities are written as log10 Kd with Kd in nM; a lower number is a better binder.
A pair that was not seen in that replicate is written "ND"; this usually means weak binding, but a binder can also be missed.
The parent sequence was in this pool as ten entries: three were never detected, three once, and four in most replicates, with averages from 0.34 to 2.37.

CDR-H1 | CDR-H2 | CDR-H3 | log10 Kd (nM) by replicate | empty controls
GFELNSYGIS | VIYSDGRRTFYGDSVK | GVLAGTFDL | 1.25 0.98 1.03 1.80 1.98 ND | 0 of 18
GFNLNSYGIS | VIYSDGRRTFYGDSVK | GQEAGTFDR | 0.08 0.61 0.12 0.30 0.24 0.15 | 0 of 18
GFTLNSYGIS | VIYSDGMRTFYGDSVK | GQTAGTFDV | 1.15 1.30 1.63 0.93 1.42 1.21 | 0 of 18
GFDLNTYGIS | VIYSDGRRTFYSDSVK | GQAAGTFDS | -0.11 -0.29 -0.13 -0.20 -0.24 -0.13 | 0 of 18
GFWLNEYGIS | VIYSDGQRTFYGDSVK | GRTAGTFDS | 1.12 0.68 ND ND 2.51 2.44 | 0 of 18
GFSLESYGIS | VIYSDGKRTFYGDSVK | GRTAGTFDS | 0.63 0.18 0.12 0.19 0.03 0.44 | 0 of 18
GFSLNEYGIS | VIYSDGRRTFYGDAVK | GRTAGTFDN | 0.01 -0.07 -0.02 -0.12 -0.41 -0.05 | 0 of 18
GFNLNSYGIS | VIYSDGRRTFYGDSVK | GRAAATFDT | ND ND ND ND ND ND | 0 of 18
GFTLNDYGIS | VIYSDGRRTFYGESVK | GRTAGTFDA | 1.65 1.22 1.44 1.39 0.98 1.28 | 0 of 18
GFDLNSYGIS | VIYSDGMRTFYTDSVK | GRTAGTFDS | -0.47 -0.34 -0.46 -0.46 -0.40 -0.33 | 0 of 18
GFTLNEYGIS | VIYSDGKRTFYGDAVK | GRTAGTFWS | ND ND ND ND ND ND | 1 of 18 (1.79)
GFDLNWYGIS | VIYSDGRRTFYIDSVK | GNAAGTFDS | ND 0.70 1.02 1.36 1.15 1.27 | 0 of 18
KFDLNSYGIS | VIYSDGRRTFYCDSVK | GKTAGTFDS | ND 0.65 1.60 1.40 1.27 2.10 | 1 of 18 (1.37)
KFNLNSYGIS | VIYSDGRRTFYIDSVK | GQTAGTFDS | ND ND ND ND ND 2.22 | 0 of 18
GFDLNSYGIS | VIYSDGRRTFYGDEVK | GRTAGTFDE | -0.23 0.08 -0.34 0.00 -0.43 0.00 | 0 of 18
GFNLNSYGIS | VIYADGRRTFYGDSVK | GQAAGTFDT | 0.29 -0.09 0.14 -0.30 0.12 -0.15 | 0 of 18
GFSLNSYGIS | VIYSDGRRTFYADSVK | GQEAGTFDK | 0.07 0.07 -0.11 -0.34 -0.04 -0.39 | 0 of 18
GFNLNSYGIS | VIYSDGRRTFYVDSVK | GQTAGTFDK | ND 1.08 1.62 0.62 1.21 1.14 | 0 of 18
GFELNSYGIS | VIYSDGRRTFYRDSVK | GQTAGTFDL | 1.21 0.73 1.30 0.92 0.65 0.88 | 0 of 18
GFTLNSYGIS | VIYSDGMRTFYVDSVK | GRTAGTFWS | ND ND ND ND ND ND | 0 of 18
GFDLNSYGIS | VIYSDGRRTFYGDQVK | GKTAGTFDA | 0.01 0.58 -0.16 0.06 -0.31 -0.26 | 0 of 18
GFDLNSYGIS | VIYSDGRRTFYGDMVK | GRTAGTFDD | -0.11 0.87 -0.04 0.34 -0.03 0.80 | 0 of 18
GFTLNSYGIS | VIYADGKRTFYGDSVK | GQAAGTFDT | ND 1.28 0.10 0.86 0.78 0.92 | 0 of 18
KFQLNSYGIS | VIYSDGRRTFYQDSVK | GRTAGTFDS | ND 0.83 ND ND ND ND | 0 of 18
GFTLNSYGIS | VIYSDGRRTFYADSVK | GKEAGTFDA | 0.15 -0.05 -0.16 -0.08 -0.13 0.16 | 1 of 18 (2.45)
GFELNEYGIS | VIYSDGRRTFYMDSVK | GRTAGTFDT | 0.50 0.02 0.13 0.06 0.54 0.41 | 0 of 18
GFELNEYGIS | VIYSDGRRTFYADWVK | GRTAGTFDS | 1.70 0.55 0.83 0.93 0.67 ND | 0 of 18
MFTLNSYGIS | VIYSDGRRTFYGDSVK | GHEAGTFDT | 1.48 1.47 1.23 1.24 1.93 0.79 | 0 of 18
KFTLNSYGIS | VIYSDGKRTFYSDSVK | GKTAGTFDS | 0.27 0.51 1.12 0.78 0.84 0.83 | 0 of 18
GFELNSYGIS | VIYADGRRTFYGDSVK | GRAAGTFDF | 0.33 -0.70 0.25 -0.48 -0.39 -0.14 | 0 of 18

A selection of 5 entries from above:

{"CDR-H1": "GFELNSYGIS", "CDR-H2": "VIYADGRRTFYGDSVK", "CDR-H3": "GRAAGTFDF", "log10 Kd (nM) by replicate": "0.33 -0.70 0.25 -0.48 -0.39 -0.14", "empty controls": "0 of 18"}
{"CDR-H1": "GFNLNSYGIS", "CDR-H2": "VIYSDGRRTFYGDSVK", "CDR-H3": "GRAAATFDT", "log10 Kd (nM) by replicate": "ND ND ND ND ND ND", "empty controls": "0 of 18"}
{"CDR-H1": "GFELNSYGIS", "CDR-H2": "VIYSDGRRTFYGDSVK", "CDR-H3": "GVLAGTFDL", "log10 Kd (nM) by replicate": "1.25 0.98 1.03 1.80 1.98 ND", "empty controls": "0 of 18"}
{"CDR-H1": "GFTLNSYGIS", "CDR-H2": "VIYSDGMRTFYGDSVK", "CDR-H3": "GQTAGTFDV", "log10 Kd (nM) by replicate": "1.15 1.30 1.63 0.93 1.42 1.21", "empty controls": "0 of 18"}
{"CDR-H1": "GFTLNDYGIS", "CDR-H2": "VIYSDGRRTFYGESVK", "CDR-H3": "GRTAGTFDA", "log10 Kd (nM) by replicate": "1.65 1.22 1.44 1.39 0.98 1.28", "empty controls": "0 of 18"}

The authors' rule: three or more of the six replicates give a measured affinity, fewer mean a poor binder.
Three control strains display no target. For all heavy chain designs, 1% of the pairings with them gave a signal, with a median of 2.08 and one signal in twenty below 0.84, so weak values seen in few replicates may be background. For each scFv, signals with the empty controls are counted beside the result, with their mean in brackets.
Values of this round are not directly comparable with the first-round values of the same sequences.

The measurements come from Li et al. 2023 (doi:10.1038/s41467-023-39022-2) through the FLAb antibody collection.